Measurements reported in patent US8236762B2, “Peptide-cytotoxic conjugates” (IPSEN Pharma S.A.S., priority 2006, dated 2012).

Tests used:
[1] = Half-life determination in mouse plasma (LC-MS); type: in vitro ADME; details: 37° C.
Method: (§1) Samples containing approximately 50 μg/ml up to and including approximately 500 μg/ml of test compound according to Formula IA or IB or II was added to 450 μl human or mouse plasma, vortexed briefly and incubated at 37° C. At various time intervals, e.g., 0, 0.5, 1, 2, 4, 6, 8, 24, 36 and 48 hours, 50 μl of the compound-plasma mixture was added to 150 μl acetonitrile in a microcentrifuge tube. The mixture was vortexed, centrifuged for 5 minutes at 10K RPM, and 135 μl of supernatant was transferred to an injection vial. The recovered supernatant was analyzed by using a liquid chromatography-mass spectrophotometer system (LC-MS) consisting of a Finnigan Deca XP® mass spectrometer with an ESI probe at the positive ion mode. HPLC separation was carried out on a Luna 3μ C8 (2)® 3×50 mm column with a gradient decreasing from 100% A to 80% B for 10 minutes at a flow rate of 0.25 ml/min. Buffer A was 0.1% acetic acid in water and buffer B was 0.1% acetic acid acetonitrile.

[2] = Half-life determination in human plasma (LC-MS); type: in vitro ADME; details: 37° C.
Method: as §1

Camptothecin-rvD-Asp-Suc-(Doc)4-Aepa-D-Phe-c(Cys-Tyr-D-Trp-Lys-Abu-Cys)-Thr-NH2 Camptothecin-rvAsp-Suc-(Doc)4-Aepa-D-Phe-c(Cys-Tyr-D-Trp-Lys-Abu-Cys)-Thr-NH2 [Example 5A]
Half-life in Mouse Plasma [1]: 20.8 h | Half-life in Human Plasma [2]: 10.8 h

Camptothecin-rvD-Asp-Suc-(Doc)4-Aepa-D-Phe-c(Cys-Tyr-D-Trp-Lys-Abu-Cys)-Thr-NH2 Camptothecin-rvAsp-Suc-(Doc)4-Aepa-D-Phe-c(Cys-Tyr-D-Trp-Lys-Abu-Cys)-Thr-NH2 [Example 5B]
Half-life in Mouse Plasma [1]: 27.5 h | Half-life in Human Plasma [2]: 10.3 h

Camptothecin-rvD-Glu-Suc-(Doc)4-Aepa-D-Phe-c(Cys-Tyr-D-Trp-Lys-Abu-Cys)-Thr-NH2 and Camptothecin-rvGlu-Suc-(Doc)4-Aepa-D-Phe-c(Cys-Tyr-D-Trp-Lys-Abu-Cys)-Thr-NH2 [Example 6]
Half-life in Mouse Plasma [1]: 13.1 h | Half-life in Human Plasma [2]: 10.7 h
